Assay results reported in patent publication US6608082B1, “Treatment of erectile dysfunction using isoquinoline compound melanocortin receptor ligands” (Lion Bioscience AG, priority 1998, dated 2003).

Sequences of proteins named here, by UniProt entry; tags and fusion partners are left off.
UniProt Q01726, whole entry: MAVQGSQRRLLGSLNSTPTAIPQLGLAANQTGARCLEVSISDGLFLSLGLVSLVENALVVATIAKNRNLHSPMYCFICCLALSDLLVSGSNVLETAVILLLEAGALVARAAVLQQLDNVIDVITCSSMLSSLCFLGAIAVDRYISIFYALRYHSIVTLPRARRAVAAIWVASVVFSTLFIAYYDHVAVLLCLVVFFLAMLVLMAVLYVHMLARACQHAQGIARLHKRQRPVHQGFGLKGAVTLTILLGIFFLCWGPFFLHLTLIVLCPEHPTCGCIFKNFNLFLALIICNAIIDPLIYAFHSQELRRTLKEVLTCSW
UniProt P32245, whole entry: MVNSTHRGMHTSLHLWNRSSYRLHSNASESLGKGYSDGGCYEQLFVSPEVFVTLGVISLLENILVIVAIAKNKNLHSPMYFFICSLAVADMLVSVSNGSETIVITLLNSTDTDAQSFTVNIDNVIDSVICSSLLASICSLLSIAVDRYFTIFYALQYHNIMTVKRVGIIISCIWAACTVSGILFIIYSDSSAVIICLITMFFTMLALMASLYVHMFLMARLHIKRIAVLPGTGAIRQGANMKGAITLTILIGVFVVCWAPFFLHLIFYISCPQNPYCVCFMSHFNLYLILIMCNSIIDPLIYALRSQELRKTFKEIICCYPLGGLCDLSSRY

How the values were obtained:
[1] = tested on: IL-10; experiment: Increasing levels of IL-10 in mice (plasma ELISA); settings: 90 or 105 minutes
Procedure: Isoquinoline compounds were administered intraperitoneally to mice in doses of 30, 100 or 300 μg/mouse or orally in doses of 300 or 600 μg/mouse. Levels of IL-10 were measured 90 or 105 minutes after administration as indicated. Samples were collected and diluted, when appropriate, as described in Example VI. A 100 μl sample of plasma was assayed by ELISA for IL-10. Briefly, ELISA plates were coated with rat anti-mouse IL-10 monoclonal antibody (Pharmingen; San Diego Calif.). Samples or known concentrations of IL-10 were added to the coated plates and incubated for 2 hr at 37° C. Plates were washed and incubated with biotinylated rat anti-mouse IL-10 (R&D Systems; Minneapolis Minn.) for 1 hr at 37° C. Plates were washed and incubated with streptavidin-HRP 30 min at 37° C., and HRP activity was detected with hydrogen peroxide and TMB using standard immunoassay procedures.
TRG 2408-30 is particularly effective at increasing IL-10 when administered orally.

[2] = biological target: MCR-1 (Homo sapiens, UniProt Q01726); experiment: cAMP assay for melanocortin receptors, HEK 293 cells expressing MCR-1
Procedure: (§1) HEK 293 cells expressing MCR-1, MCR-3, MCR-4 and MCR-5 were used (see Example II). Cells were plated at 20,000 cells per well in a 96-well plate coated with collagen. The next day, cells were pretreated with 75 μl of 0.4 mM 3-isobutyl-1-methylxanthine (IBMX) in low serum medium containing DMEM, 25 mM HEPES, non-essential amino acids, vitamins, 100 units/ml penicillin, 100 μg/ml streptomycin and 0.1% COSMIC CALF SERUM. IBMX is an inhibitor of cAMP phosphodiesterase. The pretreatment was carried out for 10 min at 37° C.
(§2) Following pretreatment, 25 μl of diluted isoquinoline compound was added to the wells, and cells were incubated for 15 min at 37° C. Cells were lysed by adding 25 μl saponin lysis buffer and incubating 2 to 5 min. Plates were covered and stored at −20° C.
(§3) cAMP concentration was determined by ELISA. Briefly, 96 well ELISA plates were coated with goat anti-cAMP antibody in PBS for 12 to 72 hr at 4° C. 50 μl of sample was mixed with 50 μl of cAMP ELISA buffer containing 1% bovine serum albumin, 10% heat-inactivated donor horse serum, 1% normal mouse serum and 0.05% TWEEN-20 in PBS, and the diluted sample was added to the coated ELISA plate. Standards of known concentrations of cAMP were added to separate wells. 25 μl of 16 ng/ml cAMP-conjugated horse radish peroxidase (HRP) (cAMP-HRP) was added to each well, and the plates were incubated hr at room temperature. Plates were washed and the binding of cAMP-HRP was detected with 3,3′,5,5′-tetramethylbenzidine (TMB) and hydrogen peroxide using standard immunoassay procedures.
Various isoquinoline compounds were tested for their ability to activate MC receptor by measuring cAMP as described in Example III.

[3] = tested on: TNF-α; experiment: Reduction of lipopolysaccharide-induced tumor necrosis factor levels in mice; settings: plasma 90 or 105 minutes after LPS, mean ± SEM
Procedure: BALB/c female mice weighing approximately 20 g were placed into a control group and a treated group. Five mg/kg of LPS in 0.9% saline was administered (100 μl to give 100 μg LPS per mouse) by intraperitoneal (IP) injection to all mice. Mice in the treatment group received either 30, 100, 300 or 600 μg of various isoquinoline compounds per mouse in a volume of 100 μl of PBS. Control mice received 100 μl of saline alone. One minute after initial injections all mice received the LPS injection. As a positive control, 100 μg of HP 228 was injected per mouse.
Blood samples were collected from the orbital sinus of treated and control mice 90 minutes or 105 minutes after LPS administration. The plasma was separated by centrifugation at 3000×g for 5 min and stored at −20° C. Samples were thawed and diluted, if TNF-α concentration was greater than 3200 pg/ml, with PBS containing 1% bovine serum albumin, 10% donor horse serum, 1% normal mouse serum, 0.05% TWEEN-20 and 0.05% thimerosal. A 100 μl sample of plasma was assayed by ELISA for TNF-α. […] Plates were washed and incubated with streptavidin-HRP for 1 hr at 37° C., and HRP activity was detected with hydrogen peroxide and o-phenylenediamine (OPD) using standard immunoassay procedures.
The mean (±SEM) TNF-α level in five mice from each group was determined and the percent reduction in TNF-α levels was calculated. […]

[4] = biological target: MCR-4 (Homo sapiens, UniProt P32245); experiment: cAMP assay for melanocortin receptors, HEK 293 cells expressing MCR-4
Procedure: as §1, §2
as §3, with “25 μl of 16 ng/ml cAMP-conjugated horse radish peroxidase (HRP) (cAMP-HRP) was added to each well, and the plates were incubated hr at room temperature.” left out, “procedures. […]” for “procedures.”

CCNc1ccc(C2C(CNCc3ccccc3O)c3ccccc3CN2CCCC[C@@H](CN)NC)cc1 (some centres unmarked)
% IL-10 Induction, IP 30 ([1]; 30 μg per mouse): 50 ± 16%
% IL-10 Induction, IP 300 ([1]; 300 μg per mouse): 180 ± 50 %
MC-1 Max (pmole) cAMP produced ([2]; maximum amount of cAMP): 20 pmol
EC50 ([2]; read-out: MC-1 EC50 (cAMP), 50% of maximal cAMP production): 1.1 µM
% TNF-α Inhibtion, IP 30 ([3]; 30 μg per mouse): 34 ± 14%
% TNF-α Inhibtion, IP 300 ([3]; 300 μg per mouse): 83 ± 11 %
MC-4 Max (pmole) cAMP produced ([4]; maximum amount of cAMP): 50.71 pmol
EC50 ([4]; read-out: MC-4 EC50 (cAMP)): 47.6 µM
